PubChem BioAssay AID2380 (Sanford-Burnham Center for Chemical Genomics, 2010)
The entries are a selection whose mix differs from that of the whole data set. Active and inactive are the calls of the source.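 Rule for the calls: active = compounds whose signal lies at least 3.5 SD above the mean of all wells on their plate; inactive = the rest.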

Assay: small molecules increasing insulinoma cell replication – ATP luminescence, uHTS, primary screen (AID 2380);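 note: 0% = DMSO-treated cells in low-serum medium and 100% = 10% serum control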
Details: MIN6 cells proliferation, ATPlite luminescence, 48 h; at 10 µM; stronger effect = higher value; 100% = growth in 10% serum; cells starved in 0.2% serum
In the case of `CN(C(=O)Cc1ccc(Cl)c(Cl)c1)[C@H]1CCCC[C@H]1N1CCCC1`, the proliferation is reported as inactive: -1.4%.
For `Cc1ccc(N/C(=N/P(=O)(N2CCOCC2)N2CCOCC2)N2CCOCC2)cc1`, the proliferation was inactive: -0.81%.
For `NC(=O)c1cc([N+](=O)[O-])cc([N+](=O)[O-])c1N`, the proliferation was inactive: -1.21%.
With `Clc1ccc(Cl)c(NC2=NCC(CBr)S2)c1` (centres undefined) the proliferation was inactive: -0.07%.
In the case of `CN1CCCC(OC(=O)C(c2ccccc2)c2ccccc2)C1` (centres undefined), the proliferation is reported as inactive: -2.19%.
With `COc1ccccc1OP(=O)(Nc1ccc(C)cn1)Oc1ccccc1OC` the proliferation was inactive: -1.36%.
For `Cc1ccc(OP(=O)(Nc2nccs2)Oc2ccc(C)cc2)cc1`, the proliferation was inactive: 2.27%.
In the case of `Oc1ccccc1CNc1ccccn1`, the proliferation is reported as inactive: -2.2%.
For `Cc1c2non([O-])c-2c(C)[n+](=O)[n+]1[O-]`, the proliferation was inactive: -5.77%.
In the case of `O=C(NC(Sc1ccncn1)C(Cl)(Cl)Cl)c1ccccc1` (centres undefined), the proliferation is reported as inactive: -0.73%.
For `CC(C)CC(=O)NC(Sc1ccc(Cl)cc1)C(Cl)(Cl)Cl` (centres undefined), the proliferation was inactive: -4.41%.
For `Nc1cc(N)c2nonc2c1[N+](=O)[O-]`, the proliferation was inactive: -1.14%.
In the case of `O=P(Nc1nc2ccc(Cl)cc2s1)(c1ccccc1)c1ccccc1`, the proliferation is reported as inactive: -5.94%.
With `O=C(O)c1ccccc1[As](=O)(O)O` the proliferation was inactive: -0.34%.
With `CC(=O)Nc1ccc([As](=O)(O)O)cc1` the proliferation was inactive: 2.27%.
In the case of `CCOP(=O)(Nc1ccccc1)OCC`, the proliferation is reported as inactive: -2.13%.
With `Cc1cc(SC(NC(=O)c2ccc(F)cc2)C(Cl)(Cl)Cl)ncn1` (centres undefined) the proliferation was inactive: -1.41%.
For `CN(C(=O)Cc1ccc(Cl)c(Cl)c1)[C@H]1CCCC[C@@H]1N1CCCC1`, the proliferation was inactive: 1.17%.
With `Cc1ccc(NP(=O)(Oc2ccccc2F)Oc2ccccc2F)nc1` the proliferation was inactive: -1.66%.
For `O=[N+]([O-])c1cc([N+](=O)[O-])c(CCN2CCOCC2)c([N+](=O)[O-])c1`, the proliferation was inactive: -6.4%.
For `CCN(N=Nc1nonc1N)c1nonc1N`, the proliferation was inactive: -1.84%.
With `O=C(Nc1cc([As](=O)(O)O)ccc1O)c1ccccc1` the proliferation was inactive: -5.17%.
In the case of `O=[N+]([O-])c1ncn(CCn2ncnc2[N+](=O)[O-])n1`, the proliferation is reported as inactive: 2.76%.
With `CC(C)(C)C(=O)NC(Sc1ccncn1)C(Cl)(Cl)Cl` (centres undefined) the proliferation was inactive: -5.14%.
With `O=[N+]([O-])c1cccc(NC2=NCC(CBr)S2)c1` (centres undefined) the proliferation was inactive: -2.27%.
With `COc1ccc(C2=NCC(CBr)S2)cc1` (centres undefined) the proliferation was inactive: -4.52%.
With `Cc1ccc(NP(=O)(Oc2ccccc2)Oc2ccccc2)nc1` the proliferation was inactive: -0.03%.
For `O=[N+]([O-])c1cc([N+](=O)[O-])c(CCNc2ccccc2)c([N+](=O)[O-])c1`, the proliferation was inactive: -7.07%.
With `CCc1nc2c(n1)c1c(non1O)c1c2no[n+]1[O-]` the proliferation was inactive: -5.85%.
For `CC(=O)N1C2C3N(C(C)=O)C1C1N(C(C)=O)C(C(N1C(C)=O)N3C(C)=O)N2C(C)=O`, the proliferation was inactive: -0.16%.
For `O=[N+]([O-])c1cccc2n[nH]nc12`, the proliferation was inactive: 0.08%.
For `CCN(/C(=N/P(=O)(N1CCOCC1)N1CCOCC1)N1CCOCC1)c1ccc(OC)cc1`, the proliferation was inactive: -0.6%.
In the case of `Nc1ccc([As](=O)(O)c2ccc(N)cc2)cc1`, the proliferation is reported as inactive: -2.62%.
In the case of `C[N+]1=C2C=CC=CC=C2SC12C([N+](=O)[O-])=CC([N+](=O)[O-])=C[C-]2[N+](=O)[O-]` (centres undefined), the proliferation is reported as inactive: -6.33%.
For `CC1CCN(C(=O)Oc2c(Cl)cc(Cl)c3cccnc23)CC1`, the proliferation was inactive: -1.8%.
In the case of `CC(C)=N/N=C(\N)N[N+](=O)[O-]`, the proliferation is reported as inactive: -0.25%.
For `CN(C)C(=O)OCCc1n(C)cc[n+]1C`, the proliferation was inactive: -0.95%.
For `O=P(Nc1nccs1)(c1ccccc1)c1ccccc1`, the proliferation was inactive: 2.72%.
With `CC(C)C(=O)NC(Sc1ccccc1)C(Cl)(Cl)Cl` (centres undefined) the proliferation was inactive: 0%.
For `c1nnnn1CCn1cnnn1`, the proliferation was inactive: 0.32%.
For `CN(C)C1(CNC(=O)c2ccc(Cl)c(S(N)(=O)=O)c2)CCCCC1`, the proliferation was inactive: -2.02%.
In the case of `O=P(Nc1ccccn1)(c1ccc(Br)cc1)c1ccc(Br)cc1`, the proliferation is reported as inactive: -0.72%.
In the case of `O=P(Nc1nc2ccccc2s1)(c1ccccc1)c1ccccc1`, the proliferation is reported as inactive: -0.19%.
With `O=[As](O)(c1ccccc1)c1ccc(O)cc1` the proliferation was inactive: -3.68%.
In the case of `O=[N+]([O-])c1ncn(CCn2cnc([N+](=O)[O-])n2)n1`, the proliferation is reported as inactive: -2.15%.
With `O=C(OC1CN2CCC1CC2)c1cccc(Cl)c1` (centres undefined) the proliferation was inactive: -1.81%.
In the case of `Nc1ccc([As](=O)(O)c2ccc([N+](=O)[O-])cc2)cc1`, the proliferation is reported as inactive: -1.48%.
With `C(Cc1nn[nH]n1)Cc1nn[nH]n1` the proliferation was inactive: 1.68%.
For `c1ccc(-c2nn[nH]n2)c(-c2nn[nH]n2)c1`, the proliferation was inactive: -2.72%.
With `CCOC(=O)NC(Sc1ccccc1)C(Cl)(Cl)Cl` (centres undefined) the proliferation was inactive: -5.01%.
For `Cc1ccc(NP(=O)(Oc2cccc(C)c2)Oc2cccc(C)c2)nc1`, the proliferation was inactive: -0.79%.
In the case of `O=C(NC1CCS(=O)(=O)C1)NP(=S)(Oc1ccccc1)Oc1ccccc1` (centres undefined), the proliferation is reported as inactive: 0.46%.
For `CCNC(=S)/N=C(\N)N[N+](=O)[O-]`, the proliferation was inactive: 1.95%.
For `O=C(OC1CN2CCC1CC2)c1ccccc1` (centres undefined), the proliferation was inactive: -2.88%.
With `CCC(=O)N1C2C3N(C(=O)CC)C1C1N(C(=O)CC)C(C(N1C(=O)CC)N3C(=O)CC)N2C(=O)CC` the proliferation was inactive: -2.02%.
With `COC(=O)c1cc2c(s1)N=C(c1ccccc1)N(C)P2(=O)N1CCOCC1` (centres undefined) the proliferation was inactive: -0.37%.
With `Cc1ccc(OP(=O)(Nc2ccccn2)Oc2ccc(C)cc2)cc1` the proliferation was inactive: 0.02%.
For `CC(=O)NC(SC(=S)N(CC(C)C)CC(C)C)C(Cl)(Cl)Cl` (centres undefined), the proliferation was inactive: 0%.
With `Cc1ccccc1OP(=O)(Nc1ccccn1)Oc1ccccc1C` the proliferation was inactive: 0.85%.
In the case of `CC(NC(=O)COC(=O)C(O)(c1ccccc1)c1ccccc1)c1ccccc1` (centres undefined), the proliferation is reported as inactive: -4.3%.
In the case of `CN(C)C(=O)Oc1noc2ccccc12`, the proliferation is reported as inactive: 0.36%.
With `O=P1(Nc2nc3ccc(Cl)cc3s2)COc2ccccc2O1` (centres undefined) the proliferation was inactive: 0.29%.
With `CCOc1ccc(C2=NCC(CBr)S2)cc1` (centres undefined) the proliferation was inactive: -5.07%.
In the case of `CC(C)(C)C(=O)NC(Sc1ccccc1)C(Cl)(Cl)Cl` (centres undefined), the proliferation is reported as inactive: -2.28%.
In the case of `Cc1ccccc1CN(C)C(=O)COC(=O)C(O)(c1ccccc1)c1ccccc1`, the proliferation is reported as inactive: -5.89%.
For `C[C@@H]1C=CCP(=O)(Oc2ccccc2)O1` (some centres undefined), the proliferation was inactive: -4.3%.
With `C[C@H]1OP(=O)(Oc2ccccc2)C[C@@H]2O[C@@H]21` (some centres undefined) the proliferation was inactive: -0.88%.
With `CC(=O)c1ccc(N2CC2c2ccncc2)cc1` (centres undefined) the proliferation was inactive: 0.45%.
In the case of `CC(=O)Nc1ccc([As](=O)(O)O)c(O)c1`, the proliferation is reported as inactive: -3.03%.
For `CC(=O)Nc1ccc(Oc2c([N+](=O)[O-])cc([N+](=O)[O-])cc2[N+](=O)[O-])cc1`, the proliferation was inactive: -3.51%.
In the case of `O=C(OC1CN2CCC1CC2)c1ccc(Cl)cc1` (centres undefined), the proliferation is reported as inactive: 0.92%.
With `COc1cc(C(=O)NCC2(N3CCOCC3)CCCCC2)cc(Cl)c1OC(C)C` the proliferation was inactive: -0.76%.
In the case of `O=[As](O)(O)c1cccnc1`, the proliferation is reported as inactive: -0.71%.
In the case of `CS(=O)(=O)c1ccc(Cl)c(NC(=O)COC(=O)C(O)(c2ccccc2)c2ccccc2)c1`, the proliferation is reported as inactive: -2.69%.
With `O=[As](O)(c1cccc(O)c1)c1cccc(O)c1` the proliferation was inactive: 3.27%.
For `Cc1cccc(OCC(=O)OC2CN3CCC2CC3)c1` (centres undefined), the proliferation was inactive: 1.45%.
For `Cc1ccc(NCCc2c([N+](=O)[O-])cc([N+](=O)[O-])cc2[N+](=O)[O-])cc1`, the proliferation was inactive: 0%.
For `CCCOP(=S)(Nc1nc(N)cc(=O)[nH]1)OCCC`, the proliferation was inactive: 0.2%.
In the case of `COc1cc(C2NCCC3(OCCO3)C2(C)C)cc(OC)c1OC` (centres undefined), the proliferation is reported as inactive: 3.29%.
For `CCOP(=O)(Nc1cccc2ccccc12)OCC`, the proliferation was inactive: -0.63%.
With `CCOP1(=S)c2c(C)nn(CCC#N)c2N=C(c2ccccc2F)N1C` (centres undefined) the proliferation was inactive: -1.66%.
In the case of `O=P(Nc1nccs1)(c1ccccc1)c1nc2ccccc2s1` (centres undefined), the proliferation is reported as inactive: -4.47%.
For `O=P(Nc1nccs1)(Oc1ccccc1)Oc1ccccc1`, the proliferation was inactive: -1.6%.
In the case of `CS(=O)(=O)c1cc([N+](=O)[O-])c2no[n+]([O-])c2c1`, the proliferation is reported as inactive: -4.56%.
With `O=C(O)COc1ccc([As](=O)(O)O)cc1[N+](=O)[O-]` the proliferation was inactive: -2.45%.
In the case of `Nc1ccccc1[As](=O)(O)c1ccccc1`, the proliferation is reported as inactive: -3.19%.
For `NC(=O)Nc1ccc([As](=O)(O)O)cc1`, the proliferation was inactive: -6.08%.
With `N#CCCN(C(=O)COC(=O)C(O)(c1ccccc1)c1ccccc1)c1ccc(F)cc1` the proliferation was inactive: 2.45%.
For `CCOP1(=S)c2c(C)nn(CCC#N)c2N=C(c2ccc(F)cc2)N1C` (centres undefined), the proliferation was inactive: -0.86%.
With `CN(C(=O)Cc1ccccc1)[C@@H]1CC[C@]2(CCCO2)C[C@H]1N1CCCC1` the proliferation was inactive: -0.52%.
With `CN(C)C(=O)c1cc([N+](=O)[O-])cc2c1-c1c(cc([N+](=O)[O-])cc1[N+](=O)[O-])C2=O` the proliferation was inactive: -4.21%.
In the case of `O=[N+]([O-])c1ccc2c(c1)nnn2O`, the proliferation is reported as inactive: -0.21%.
For `CN(C(=O)Cc1ccc(Cl)c(Cl)c1)[C@H]1CC[C@@]2(CCCO2)C[C@@H]1N1CCCC1`, the proliferation was inactive: 4.38%.
For `Cc1nn(-c2ccccc2)c2c1P(=O)(N1CCOCC1)N(C)C(c1ccccc1)=N2` (centres undefined), the proliferation was inactive: 0.04%.
For `Cc1ccc(C(=O)OC2CN3CCC2CC3)cc1` (centres undefined), the proliferation was inactive: -1.15%.
For `CC1CCC(C(C)C)C(OP(=O)(Nc2ccccn2)c2ccccc2)C1` (centres undefined), the proliferation was inactive: 0.18%.
With `CN(C)C1(CNC(=O)c2ccc(S(C)(=O)=O)cc2)CCCCC1` the proliferation was inactive: 1.63%.
For `O=C(/C=C/c1ccccc1)OC1CN2CCC1CC2` (centres undefined), the proliferation was inactive: -2.31%.
With `O=P1(Nc2ncccn2)COc2ccccc2OC1` the proliferation was inactive: -2.27%.
